Key:
[1] = Tolerability in tumor-bearing mice (body weight, serum chemistry, hematology)
BxPC3 tumor = test: BxPC3 xenograft model; conditions: mouse, in vivo
SH2-S636A = SH2-S636A (Homo sapiens, UniProt P40763, S636A); test: MST binding to STAT3-SH2 mutant S636A
Description: (§1) STAT1 (amino acid residues 127–716), STAT2 (amino acid residues 138–702), STAT3 (amino acid residues 127–722), STAT4 (amino acid residues 133–705), STAT5B (amino acid residues 136–703) and STAT6 (amino acid residues 113–658) were cloned into the pET28A vector. STAT3-SH2 (amino acid residues 586–685) and the mutants of the STAT3-SH2 produced by site-directed mutagenesis were also cloned into the pET28A vector. All recombinant human fusion proteins were expressed in E. coli BL21 (DE3). Then, according to different induction conditions, the protein expression was induced. During the induction of the expression of STAT3-SH2 and all the mutants, STAT1, STAT2, STAT3 and STAT6, when the OD value reached about 0.6–1.0, the E. coli was transferred to 22 °C and 0.5 mM Isopropyl β-D-1-thiogalactopyranoside (IPTG) was added. For the expression of STAT4 and STAT5B when the OD value reached about 0.5–0.6, the E. coli was transferred to 30 °C for 2.5–3 h and 0.2 mM IPTG was added.
(§2) Microscale thermophoresis (MST) was conducted as previously described.[28] Binding affinities of YY002, Stattic against purified STAT3^127–722 and STAT3-SH2 protein or YY002 against STAT3-SH2 WT and mutants were measured by a Monolith NT.115 (Nanotemper Technologies). […] The samples were then loaded into premium capillaries (NanoTemper Technologies) and measured at 25 °C using 20%–40% LED power and medium MST power. […]

By UniProt entry, the sequences of proteins in these tests, tags left out. Where a name states a change or a piece, a line headed by the entry shows the natural chain unless it says otherwise. Residues count along the entry.
UniProt P40763, whole entry: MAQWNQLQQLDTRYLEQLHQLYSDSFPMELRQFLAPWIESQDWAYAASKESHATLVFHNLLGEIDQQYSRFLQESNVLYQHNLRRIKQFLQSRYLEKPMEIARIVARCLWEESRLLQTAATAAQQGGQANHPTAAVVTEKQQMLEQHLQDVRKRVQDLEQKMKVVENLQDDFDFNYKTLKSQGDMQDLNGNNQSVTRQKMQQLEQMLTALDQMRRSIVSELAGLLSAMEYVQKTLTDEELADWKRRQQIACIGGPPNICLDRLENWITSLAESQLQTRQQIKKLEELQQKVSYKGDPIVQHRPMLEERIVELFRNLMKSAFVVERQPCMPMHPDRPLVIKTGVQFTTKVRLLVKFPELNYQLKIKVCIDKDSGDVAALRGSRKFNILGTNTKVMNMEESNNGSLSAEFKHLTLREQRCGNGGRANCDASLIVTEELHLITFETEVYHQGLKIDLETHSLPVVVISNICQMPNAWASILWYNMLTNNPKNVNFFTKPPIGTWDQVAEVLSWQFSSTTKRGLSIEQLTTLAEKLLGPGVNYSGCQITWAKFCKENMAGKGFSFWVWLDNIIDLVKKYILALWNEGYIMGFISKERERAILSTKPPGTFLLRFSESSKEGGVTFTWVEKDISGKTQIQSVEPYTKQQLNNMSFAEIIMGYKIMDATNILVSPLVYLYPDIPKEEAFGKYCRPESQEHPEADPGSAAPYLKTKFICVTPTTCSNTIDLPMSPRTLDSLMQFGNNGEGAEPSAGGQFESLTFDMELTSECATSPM
UniProt P40763, 586-685 limits assumed: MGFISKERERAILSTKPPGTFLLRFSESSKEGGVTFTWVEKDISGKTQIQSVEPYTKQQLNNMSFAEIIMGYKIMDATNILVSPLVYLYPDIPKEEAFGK
UniProt P40763, 586-685 E638A limits assumed: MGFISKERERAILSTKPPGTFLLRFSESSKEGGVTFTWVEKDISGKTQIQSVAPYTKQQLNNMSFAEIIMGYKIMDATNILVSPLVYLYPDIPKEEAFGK
UniProt P40763, 586-685 S636A limits assumed: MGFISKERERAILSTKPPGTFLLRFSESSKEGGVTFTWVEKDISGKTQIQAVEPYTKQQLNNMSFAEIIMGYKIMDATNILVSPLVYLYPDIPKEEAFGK
UniProt Q12809, whole entry: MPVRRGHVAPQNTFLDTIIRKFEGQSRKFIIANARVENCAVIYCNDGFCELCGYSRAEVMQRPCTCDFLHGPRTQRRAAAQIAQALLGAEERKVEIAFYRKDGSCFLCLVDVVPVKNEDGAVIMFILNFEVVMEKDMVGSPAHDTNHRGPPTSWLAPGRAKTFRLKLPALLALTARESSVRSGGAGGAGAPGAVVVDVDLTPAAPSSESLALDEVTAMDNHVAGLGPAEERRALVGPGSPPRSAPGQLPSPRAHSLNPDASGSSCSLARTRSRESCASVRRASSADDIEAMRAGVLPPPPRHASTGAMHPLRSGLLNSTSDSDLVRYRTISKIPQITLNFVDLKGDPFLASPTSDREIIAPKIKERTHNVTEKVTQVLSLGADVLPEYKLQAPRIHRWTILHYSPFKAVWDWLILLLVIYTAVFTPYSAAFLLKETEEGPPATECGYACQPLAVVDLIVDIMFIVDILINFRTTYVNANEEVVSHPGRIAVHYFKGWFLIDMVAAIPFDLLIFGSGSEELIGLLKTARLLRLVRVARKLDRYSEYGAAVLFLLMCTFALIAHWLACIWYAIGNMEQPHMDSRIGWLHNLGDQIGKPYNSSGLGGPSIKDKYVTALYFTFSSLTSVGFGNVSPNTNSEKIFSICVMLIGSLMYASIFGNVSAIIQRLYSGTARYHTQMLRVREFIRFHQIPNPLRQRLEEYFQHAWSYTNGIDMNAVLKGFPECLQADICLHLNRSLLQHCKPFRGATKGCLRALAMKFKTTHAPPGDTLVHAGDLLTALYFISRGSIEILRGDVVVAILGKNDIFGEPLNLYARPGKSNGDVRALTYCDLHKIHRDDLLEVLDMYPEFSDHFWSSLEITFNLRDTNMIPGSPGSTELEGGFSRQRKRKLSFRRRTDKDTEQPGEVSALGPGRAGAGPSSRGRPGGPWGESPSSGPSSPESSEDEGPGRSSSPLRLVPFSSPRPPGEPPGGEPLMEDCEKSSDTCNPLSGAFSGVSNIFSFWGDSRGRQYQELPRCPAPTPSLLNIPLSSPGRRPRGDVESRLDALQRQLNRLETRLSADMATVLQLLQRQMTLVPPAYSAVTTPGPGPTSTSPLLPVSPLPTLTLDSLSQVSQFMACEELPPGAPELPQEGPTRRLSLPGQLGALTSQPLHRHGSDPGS
UniProt P33261, whole entry: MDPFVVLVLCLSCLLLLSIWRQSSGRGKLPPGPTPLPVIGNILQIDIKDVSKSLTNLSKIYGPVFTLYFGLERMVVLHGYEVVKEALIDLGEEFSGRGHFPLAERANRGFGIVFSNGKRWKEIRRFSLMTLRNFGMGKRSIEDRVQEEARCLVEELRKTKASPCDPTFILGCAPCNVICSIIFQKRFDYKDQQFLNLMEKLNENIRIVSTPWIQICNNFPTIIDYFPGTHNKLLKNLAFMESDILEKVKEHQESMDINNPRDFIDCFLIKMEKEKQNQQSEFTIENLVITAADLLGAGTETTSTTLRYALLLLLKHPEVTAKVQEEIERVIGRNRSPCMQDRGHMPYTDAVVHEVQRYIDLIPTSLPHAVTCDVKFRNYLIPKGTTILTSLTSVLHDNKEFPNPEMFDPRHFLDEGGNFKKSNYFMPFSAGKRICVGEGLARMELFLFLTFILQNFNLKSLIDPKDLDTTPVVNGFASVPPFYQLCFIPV

SUDHL-1 tumor = test: SUDHL-1 xenograft model
[2] = Liver microsome stability, dog
hERG = hERG (Homo sapiens, UniProt Q12809); test: hERG inhibition (safety panel); conditions: safety profiling
STAT3-SH2 = STAT3-SH2 (Homo sapiens, UniProt P40763); test: MST binding to STAT3-SH2
Description: as §1, §2

PAN02-luciferase cells = test: Orthotopic pancreatic cancer model (PAN02)
CYP2C19 = CYP2C19 (Homo sapiens, UniProt P33261); test: CYP2C19 inhibition; conditions: safety profiling
full-length human STAT3 = full-length human STAT3 (Homo sapiens, UniProt P40763); test: SPR binding to STAT3
Description: Surface plasmon resonance (SPR) experiments were performed with a Biacore 8K instrument (Cytiva) with CM5 sensor chip (Cytiva). To test YY002 binding of STAT3 protein, serially diluted concentrations of YY002 were injected into the flow system. Experiments were conducted using the buffer: 10 mM PBS, pH7.4, 137 mM NaCl, 2.7 mM KCl, 1 mM DTT, 0.05% P20, 5% DMSO. Recombinant full-length human STAT3 (Creative Biomart, Catalog: STAT3–001H, Batch number: PSS1072207) was immobilized on the sensor chip (CM5) using the amine-coupling method according to standard protocols. The analyte was injected at the flow rate of 30 μL/min. The association time was 180 s and the dissociation time was 180 s. Since YY002 was dissolved in PBS containing 5% dimethyl sulfoxide and a solvent correction assay was performed to adjust the results. YY002 at various concentrations was injected into the flow system. The KD values were calculated with the kinetics and affinity analysis option of Biacore evaluation software.

[3] = system: MOLM16, OCI-AML3, Karpas-299, SUDHL-1, MDA-MB-231, MDA-MB-468; test: Cell viability (MTS), non-PDAC STAT3-dependent cell lines
Description: acute myeloid leukemia cell line (KG1), human atrial fibroblast (HAF), human […]
umbilical vein endothelial cell line (HUVEC), human embryonic kidney cell line […]
(HEK293T) was purchased from Cell Bank/Stem Cell Bank of the Chinese Academy […]
of Sciences and American Type Culture Collection (ATCC). Capan-2, PANC-1 and […]
HEK293T were cultured in Dulbecco’s Modified Eagle’s Medium (DMEM) supplemented with 10% fetal bovine serum (FBS) and 1% penicillin-streptomycin, and […]
additional 2.5% horse serum was added in the medium of MIA PaCa-2; AsPC-1, BxPC- […]
3, PC3 and KG1 were cultured in RPMI 1640 medium supplemented with 10%-20% […]
FBS and 1% penicillin-streptomycin; HPAC was cultured in Dulbecco's Modified […]
Eagle Medium/Nutrient Mixture F-12 medium (DMEM/F-12), SW1990 was cultured […]
in Leibovitz's L-15 Medium, CFPAC-1 was cultured in Iscove's Modified Dulbecco's […]
Medium. HUVEC was cultured in Ham's F-12K supplemented with 0.1mg/mL Heparin, […]
0.03-0.05mg/mL ECGs, 10% FBS and 1% penicillin-streptomycin. HAF was cultured […]
in Fibroblast Medium supplemented with 10% FBS, 1% Fibroblast Growth Supplement […]
(FGS) and 1% penicillin-streptomycin.
Cell viability was measured by MTS assay following the manufacturer ’s instructions.
Briefly, cancer cells or normal cells were seeded in 96-well plates at appropriate […]

SH2-E638A = SH2-E638A (Homo sapiens, UniProt P40763, E638A); test: MST binding to STAT3-SH2 mutant E638A
Description: as §1, §2

## Cn1c(C(=O)N2CCN(Cc3ccc(OCC(F)(F)F)cc3)CC2)cc2ccc(Oc3cnc(-c4nc(-c5ccc(C(F)(F)F)cc5)no4)cn3)cc21
[1]; 10 mg/kg, P.O.
  Counts of white blood cells, lymphocytes, monocytes and neutrophils vs control: did not have a significantly influence
  Hepatic toxicity (ALT, AST): did not induce hepatic toxicity
  Serum BUN and CREA levels vs vehicle: no significant difference
[1]; PANC-1 and MIA Paca-2 tumor models
  Tolerability (systematic toxicity, body weight): well tolerated
BxPC3 tumor
  Tumor growth compared with vehicle: significant inhibition in tumor growth compared with vehicle treatment
  Tumor growth inhibition compared with FLLL32 treatment groups: superior inhibition of tumor growth
SH2-S636A
  Binding affinities (nM): did not bind
SUDHL-1 tumor; PTCL model, oral administration
  Antitumor efficacy compared to BBI608: superior antitumor efficacy compared to BBI608
SUDHL-1 tumor; orally
  Antitumor efficacy in vivo: significant regression
[2]
  Liver Microsomes t1/2: > 2 h
hERG
  IC50: > 25000 nM
STAT3-SH2
  Kd: 2.24 nM
PAN02-luciferase cells; independent experiment
  Survival of tumor-bearing mice: significantly prolonged the survival
PAN02-luciferase cells; orally for 4 weeks
  Tumor growth and metastasis (bioluminescence): inhibited tumor growth and metastasis in a concentration-dependent manner
CYP2C19
  IC50: > 25000 nM
Plasma stability, monkey
  Plasma t1/2: > 2 h
full-length human STAT3
  Kd: 65.3 nM
[3]
  Death of STAT3-dependent non-PDAC cell lines: specific death of STAT3-dependent cell lines
SH2-E638A
  Binding affinities (nM): did not bind
Plasma stability, dog
  Plasma t1/2: > 2 h

— publication PMC10979493
